Experiments:
[1] = system: CT26 cells (colon carcinoma from BALB/c mice); assay: CT26 tumour model in BALB/c mice; format: in vivo; settings: intraperitoneal; HMP 200 μg per day D10, D11, D12; LPS 1x at 3 mg/kg; 11 day period, vs PBS; FIG. 14c
serum KC = assay: In vivo administration, serum KC levels; settings: compared to vehicle PBS and control JS9 Man-1β-P
[2] = system: Human macrophage cells (THP-1); assay: Stimulation of human macrophages (THP-1), IL-8 by ELISA; settings: 30 μM or 150 μM, THP-1, 20 minutes in permeabilization buffer, then 6 hours; FIG. 11
[3] = system: NF-κB-driven luciferase reporter; assay: NF-κB-driven luciferase reporter assay in HEK 293T cells; settings: 20 μg/mL, 20 minutes in permeabilization buffer (5 μg/mL digitonin), then 3.5 hours in complete medium; FIG. 7
[4] = system: Human colonic epithelial cells (HCT 116); assay: Stimulation of human colonic epithelial cells (HCT 116), IL-8 by ELISA; settings: 10 μg/mL, HCT 116 WT or TIFA KO, 20 minutes in permeabilization buffer, then 6 hours; FIG. 8

“D-glycero-D-manno-heptopyranose 1β-phosphate” was tested, and the “change in tumour volume relative to day 10 (rate of tumour growth)” value [1] was “significantly reduced the rate of tumour growth”, the “serum KC levels” value (serum KC; 500 μg/mouse intraperitoneally, 3 h post-injection, FIG. 12) was “induced serum KC levels” and the “serum KC levels” value (serum KC; 500 μg/mouse intravenously, 1 h post-injection, FIG. 13) was “induced serum KC levels”. The “cytokine expression (IL-8 levels in culture supernatants)” value [2] was “can drive cytokine expression in vitro”, the “NF-κB stimulation (luciferase assay)” value [3] was “can immunomodulate via NF-κB stimulation in vitro” and the “cytokine expression (IL-8 levels in culture supernatants)” value [4] was “can drive cytokine expression in vitro”.
